Earlier results, collected in paper PMC2009657, “Mammalian cell transformation in vitro. Six tests for carcinogenicity” (British Journal of Cancer, 1978).

Details: in vivo; cited from earlier work

Row | Compound | Carcinogenicity, Lit.
1 | COc1cc2c(c(OC)c1OC)-c1ccc(OC)c(=O)cc1[C@@H](NC(C)=O)CC2 [Colchicine] | -
2 | CO[C@@]12[C@H](COC(N)=O)C3=C(C(=O)C(C)=C(N)C3=O)N1C[C@@H]1N[C@@H]12 [Mitomycin C] | +
